According to ChEMBL document CHEMBL3259695 (J Med Chem, 2014):

Species on record: Rattus norvegicus
Assay: Selectivity ratio of Ki for dopamine D2-like receptor in Sprague-Dawley rat caudate putamen to Ki for dopamine D3 receptor in Sprague-Dawley rat ventral striatum
Format: tissue-based

With CCCN(CC[C@]1(O)C[C@@H](NC(=O)c2ccc3ccccc3c2)C1)C1CC1c1ccc(Cl)cc1 (mixture of isomers) the Ratio Ki was greater than 21000.
Work on CCCN(CC[C@]1(O)C[C@@H](NC(=O)c2ccc3ccccc3c2)C1)[C@@H]1C[C@H]1c1ccc(Cl)cc1 yielded a Ratio Ki greater than 100000.
CCCN(CC[C@]1(O)C[C@@H](NC(=O)c2ccc3ccccc3c2)C1)[C@H]1C[C@@H]1c1ccc(Cl)cc1 was tested, and the Ratio Ki was greater than 218.
